The values below come from ChEMBL document CHEMBL3621114, “Design and Synthesis of Non-Peptide, Selective Orexin Receptor 2 Agonists” (J Med Chem, 2015).

Sequences of proteins named here, by UniProt entry; tags and fusion partners are left off.
UniProt O43613, whole entry: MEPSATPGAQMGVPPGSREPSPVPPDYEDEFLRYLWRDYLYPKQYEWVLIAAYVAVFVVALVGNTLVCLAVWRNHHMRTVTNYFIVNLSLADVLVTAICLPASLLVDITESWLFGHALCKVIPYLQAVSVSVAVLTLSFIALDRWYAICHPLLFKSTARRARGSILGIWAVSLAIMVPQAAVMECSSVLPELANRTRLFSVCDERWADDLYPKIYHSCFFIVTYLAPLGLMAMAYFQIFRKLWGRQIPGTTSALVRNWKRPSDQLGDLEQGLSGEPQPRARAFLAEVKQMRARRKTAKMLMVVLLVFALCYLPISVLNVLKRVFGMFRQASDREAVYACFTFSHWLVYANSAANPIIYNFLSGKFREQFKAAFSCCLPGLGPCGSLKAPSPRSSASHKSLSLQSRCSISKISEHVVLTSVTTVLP

Assay [1] addresses T1, Orexin/Hypocretin receptor type 1 (Homo sapiens, UniProt O43613). The experiment in a line: Agonist activity at human OX1R expressed in CHOK1 cells by calcium mobilization assay. In kind it is functional, cell-based, CHO-K1. On the technique in general: Calcium flux is commonly read through the fluorescence of an indicator in the cells.
In assay [2] the target is T1, Orexin/Hypocretin receptor type 1. Nature of the assay: biochemical.

For `COc1ccc(-c2cccc(C(=O)N(C)C)c2)cc1S(=O)(=O)Nc1cccc(NCCNC(=O)c2cccc(C)c2)c1`, the EC50 (as a rule, the concentration giving half of the maximal effect) in assay [1] is 1620 nM. Further, affinity in assay [2] was put at a Ki of 770 nM.
